According to PMC2751792 (Journal of the American Chemical Society, 2009):
pIC50: −log10 of the molar value.

Amino acid sequences for entries named in this document (tags omitted). A change or cut given only in a name is not applied to a line headed by its entry.
UniProt O15379: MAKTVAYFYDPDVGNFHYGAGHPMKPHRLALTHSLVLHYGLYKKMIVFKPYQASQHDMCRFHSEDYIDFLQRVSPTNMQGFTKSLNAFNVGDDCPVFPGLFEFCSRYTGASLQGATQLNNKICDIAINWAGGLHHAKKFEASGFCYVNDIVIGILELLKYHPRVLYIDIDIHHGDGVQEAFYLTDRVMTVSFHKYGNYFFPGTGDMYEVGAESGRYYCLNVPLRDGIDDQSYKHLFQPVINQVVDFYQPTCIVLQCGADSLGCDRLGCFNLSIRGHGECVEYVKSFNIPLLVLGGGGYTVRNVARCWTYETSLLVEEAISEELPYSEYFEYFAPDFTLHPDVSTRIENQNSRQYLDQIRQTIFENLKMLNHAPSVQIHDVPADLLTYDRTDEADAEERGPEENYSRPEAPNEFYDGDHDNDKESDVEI
UniProt Q13547, whole entry: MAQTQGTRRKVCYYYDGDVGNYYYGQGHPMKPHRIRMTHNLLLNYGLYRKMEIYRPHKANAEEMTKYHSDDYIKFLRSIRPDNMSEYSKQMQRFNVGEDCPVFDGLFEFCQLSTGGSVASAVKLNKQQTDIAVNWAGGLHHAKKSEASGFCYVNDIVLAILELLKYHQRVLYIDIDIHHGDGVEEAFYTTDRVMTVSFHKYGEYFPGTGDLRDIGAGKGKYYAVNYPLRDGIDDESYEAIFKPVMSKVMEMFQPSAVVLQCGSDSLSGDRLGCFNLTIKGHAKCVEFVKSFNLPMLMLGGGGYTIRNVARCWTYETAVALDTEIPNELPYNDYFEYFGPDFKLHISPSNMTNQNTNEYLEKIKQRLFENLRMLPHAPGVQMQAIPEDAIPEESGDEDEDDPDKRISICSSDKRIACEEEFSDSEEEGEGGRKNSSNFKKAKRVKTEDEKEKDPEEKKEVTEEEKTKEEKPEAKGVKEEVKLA

Legend:
Type in all cases: biochemical
[1] = target: recombinant human HDAC3 (Homo sapiens, UniProt O15379); assay: Recombinant HDAC isoform inhibition, HDAC3
[2] = target: recombinant human HDAC1 (Homo sapiens, UniProt Q13547); assay: Recombinant HDAC isoform inhibition, HDAC1
[3] = target: T1, recombinant human HDAC6 (Homo sapiens, UniProt Q9UBN7); assay: Recombinant HDAC isoform inhibition, HDAC6
T1 sequence (Q9UBN7 1-1215): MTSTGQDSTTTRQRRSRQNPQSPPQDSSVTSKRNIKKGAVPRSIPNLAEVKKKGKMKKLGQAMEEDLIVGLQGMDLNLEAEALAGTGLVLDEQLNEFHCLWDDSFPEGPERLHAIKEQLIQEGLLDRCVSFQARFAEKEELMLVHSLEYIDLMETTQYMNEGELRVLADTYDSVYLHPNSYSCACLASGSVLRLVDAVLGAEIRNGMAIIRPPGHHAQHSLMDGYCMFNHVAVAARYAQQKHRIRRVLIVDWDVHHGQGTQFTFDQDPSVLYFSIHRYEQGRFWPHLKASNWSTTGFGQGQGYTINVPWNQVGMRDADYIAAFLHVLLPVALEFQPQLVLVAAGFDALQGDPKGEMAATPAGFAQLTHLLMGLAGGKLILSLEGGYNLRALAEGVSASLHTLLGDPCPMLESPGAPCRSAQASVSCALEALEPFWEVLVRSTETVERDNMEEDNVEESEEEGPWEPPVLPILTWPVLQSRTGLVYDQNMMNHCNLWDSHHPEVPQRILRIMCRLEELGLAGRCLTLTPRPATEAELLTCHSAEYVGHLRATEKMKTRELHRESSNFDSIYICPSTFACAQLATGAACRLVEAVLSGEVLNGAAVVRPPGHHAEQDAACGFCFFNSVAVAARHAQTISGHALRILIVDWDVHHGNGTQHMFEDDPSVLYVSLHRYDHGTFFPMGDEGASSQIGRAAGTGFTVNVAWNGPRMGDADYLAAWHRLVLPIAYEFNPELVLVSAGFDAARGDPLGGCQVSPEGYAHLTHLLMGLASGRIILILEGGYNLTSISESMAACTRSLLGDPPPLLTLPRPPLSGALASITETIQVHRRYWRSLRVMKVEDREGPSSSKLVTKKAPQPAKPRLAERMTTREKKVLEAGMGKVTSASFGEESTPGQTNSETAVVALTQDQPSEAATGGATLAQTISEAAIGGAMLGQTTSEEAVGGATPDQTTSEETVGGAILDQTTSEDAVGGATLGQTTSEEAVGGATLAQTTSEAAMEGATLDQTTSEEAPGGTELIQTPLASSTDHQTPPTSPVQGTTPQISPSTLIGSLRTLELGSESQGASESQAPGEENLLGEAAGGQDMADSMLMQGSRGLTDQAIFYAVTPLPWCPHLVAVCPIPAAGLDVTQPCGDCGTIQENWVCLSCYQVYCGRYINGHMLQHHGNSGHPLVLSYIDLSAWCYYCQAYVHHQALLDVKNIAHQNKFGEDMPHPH

pIC50 [1]: 7.60
pIC50 [2]: 8.82
pIC50 [3]: 7.52
SMILES: CC(C)C[C@H]1CC(=O)N[C@@H](C)C(=O)N[C@@H](CCCCCC(=O)NO)C(=O)N[C@@H](Cc2c[nH]c3ccccc23)C(=O)N1 [3a]
